Experimental data as given in patent US20220117913A1, “DEZOCINE DERIVATIVE AND MEDICAL USE THEREOF” (YANGTZE RIVER PHARMACEUTICAL GROUP CO., LTD., priority 2019, published 2022).
pIC50: −log10 of the molar value.

The chains behind the UniProt entries cited, without tags or fusion partners.
UniProt P35372, whole entry: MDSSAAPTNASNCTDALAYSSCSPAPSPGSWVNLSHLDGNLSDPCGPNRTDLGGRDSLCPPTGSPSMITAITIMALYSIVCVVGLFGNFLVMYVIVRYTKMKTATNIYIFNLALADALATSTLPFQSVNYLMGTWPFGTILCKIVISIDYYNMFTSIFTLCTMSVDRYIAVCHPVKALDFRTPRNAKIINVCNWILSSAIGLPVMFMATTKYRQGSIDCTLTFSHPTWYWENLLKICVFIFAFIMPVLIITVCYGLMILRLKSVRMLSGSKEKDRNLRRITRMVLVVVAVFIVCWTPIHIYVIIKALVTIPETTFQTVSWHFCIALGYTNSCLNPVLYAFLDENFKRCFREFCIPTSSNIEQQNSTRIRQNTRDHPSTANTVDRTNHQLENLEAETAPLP

Columns and labels:
δ opioid receptor = δ opioid receptor (Homo sapiens, UniProt P41143); assay: radioisotope ligand competitive binding assay, δ opioid receptor (DOR); conditions: read-out: δ IC50; [3H]-DADLE 0.5 nM, cell membrane of stably transfected cells; tested form: HCl
From the text: (§1) Through the radioisotope ligand competitive binding assay, IC50 of the compound was used as an indicator to evaluate the affinity of the compound to κ and δ opioid receptors.
(§2) (1) Reagents • The cell membrane was extracted from stably transfected cells constructed by WuXi AppTec, Shanghai. • 3H-diprenophrine (PerkinElmer, Cat: NET1121250UC, Lot: 2143599) • 3H-DAMGO (PerkinElmer, Cat: NET902250UC, Lot: 2139100) • 3H-DADLE (PerkinElmer, Cat: NET648250UC, Lot: 2060549) • Tris base (Sigma, Cat: T6066-1KG), prepare 1M stock and adjust pH to 7.4. • 0.5M EDTA (Invitrogen, Cat: 15575-038) • 1M MgCl2 (Sigma, Cat: M1028-100 ml) • PEI (Poly ethyleneimine) (Sigma, Cat: P3143) • Microscint 20 cocktail (PerkinElmer, Cat: 6013329) • Naltrindole (Sigma, Cat; N115) • (±)trans-U-50488 (Sigma, Cat: D8040) • DAMGO (Sigma, Cat: E7384)
(§3) (1) 1 μL of the test compounds, negative control (i.e., DMSO) and positive control (i.e., non-specific binding well compound), after being prepared, were respectively transferred to a 96-well plate; […]
(§4) (9) The radioactive signal value CPM was read using MicroBeta2;
(§5) (10) The data was analyzed with Prism 5. The percentage inhibition rate was calculated with the calculation formula: % Inh=(1-Background subtracted Assay value/Background subtracted HC value)*100.

κ opioid receptor = κ opioid receptor (Homo sapiens, UniProt P41145); assay: radioisotope ligand competitive binding assay, κ opioid receptor (KOR); conditions: read-out: κ IC50; [3H]Diprenorphine 0.3 nM, cell membrane of stably transfected cells; tested form: HCl
From the text: as §1, §2, §3, §4, §5

μ opioid receptor = μ opioid receptor (Homo sapiens, UniProt P35372); assay: radioisotope ligand competitive binding assay, μ opioid receptor (MOR); conditions: read-out: μ IC50; [3H]DAMGO 0.5 nM, cell membrane of stably transfected cells; tested form: HCl

CN(Cc1ccccc1)[C@H]1[C@H]2CCCCC[C@]1(C)c1cc(O)ccc1C2 was tested, and the pIC50 (δ opioid receptor) was 7.00 to 8.00, the pIC50 (κ opioid receptor) was greater than 8.00 and the pIC50 (μ opioid receptor) was greater than 8.00.
CCCN[C@H]1[C@H]2CCCCC[C@]1(C)c1cc(O)ccc1C2 gave a pIC50 (δ opioid receptor) of 6.00 to 7.00, a pIC50 (κ opioid receptor) of 7.00 to 8.00 and a pIC50 (μ opioid receptor) greater than 8.00.
